Patent publication US20250376468A1, “PYRAZOLO[1,5-a]PYRIDINE DERIVATIVES FOR TREATING TRPM3-MEDIATED DISORDERS” (Katholieke Universiteit Leuven, priority 2022, published 2025)

By UniProt entry, the sequences of proteins in these tests, tags left out. Residues count along the entry.
UniProt J9SQF3, 1-1709 isoform 12: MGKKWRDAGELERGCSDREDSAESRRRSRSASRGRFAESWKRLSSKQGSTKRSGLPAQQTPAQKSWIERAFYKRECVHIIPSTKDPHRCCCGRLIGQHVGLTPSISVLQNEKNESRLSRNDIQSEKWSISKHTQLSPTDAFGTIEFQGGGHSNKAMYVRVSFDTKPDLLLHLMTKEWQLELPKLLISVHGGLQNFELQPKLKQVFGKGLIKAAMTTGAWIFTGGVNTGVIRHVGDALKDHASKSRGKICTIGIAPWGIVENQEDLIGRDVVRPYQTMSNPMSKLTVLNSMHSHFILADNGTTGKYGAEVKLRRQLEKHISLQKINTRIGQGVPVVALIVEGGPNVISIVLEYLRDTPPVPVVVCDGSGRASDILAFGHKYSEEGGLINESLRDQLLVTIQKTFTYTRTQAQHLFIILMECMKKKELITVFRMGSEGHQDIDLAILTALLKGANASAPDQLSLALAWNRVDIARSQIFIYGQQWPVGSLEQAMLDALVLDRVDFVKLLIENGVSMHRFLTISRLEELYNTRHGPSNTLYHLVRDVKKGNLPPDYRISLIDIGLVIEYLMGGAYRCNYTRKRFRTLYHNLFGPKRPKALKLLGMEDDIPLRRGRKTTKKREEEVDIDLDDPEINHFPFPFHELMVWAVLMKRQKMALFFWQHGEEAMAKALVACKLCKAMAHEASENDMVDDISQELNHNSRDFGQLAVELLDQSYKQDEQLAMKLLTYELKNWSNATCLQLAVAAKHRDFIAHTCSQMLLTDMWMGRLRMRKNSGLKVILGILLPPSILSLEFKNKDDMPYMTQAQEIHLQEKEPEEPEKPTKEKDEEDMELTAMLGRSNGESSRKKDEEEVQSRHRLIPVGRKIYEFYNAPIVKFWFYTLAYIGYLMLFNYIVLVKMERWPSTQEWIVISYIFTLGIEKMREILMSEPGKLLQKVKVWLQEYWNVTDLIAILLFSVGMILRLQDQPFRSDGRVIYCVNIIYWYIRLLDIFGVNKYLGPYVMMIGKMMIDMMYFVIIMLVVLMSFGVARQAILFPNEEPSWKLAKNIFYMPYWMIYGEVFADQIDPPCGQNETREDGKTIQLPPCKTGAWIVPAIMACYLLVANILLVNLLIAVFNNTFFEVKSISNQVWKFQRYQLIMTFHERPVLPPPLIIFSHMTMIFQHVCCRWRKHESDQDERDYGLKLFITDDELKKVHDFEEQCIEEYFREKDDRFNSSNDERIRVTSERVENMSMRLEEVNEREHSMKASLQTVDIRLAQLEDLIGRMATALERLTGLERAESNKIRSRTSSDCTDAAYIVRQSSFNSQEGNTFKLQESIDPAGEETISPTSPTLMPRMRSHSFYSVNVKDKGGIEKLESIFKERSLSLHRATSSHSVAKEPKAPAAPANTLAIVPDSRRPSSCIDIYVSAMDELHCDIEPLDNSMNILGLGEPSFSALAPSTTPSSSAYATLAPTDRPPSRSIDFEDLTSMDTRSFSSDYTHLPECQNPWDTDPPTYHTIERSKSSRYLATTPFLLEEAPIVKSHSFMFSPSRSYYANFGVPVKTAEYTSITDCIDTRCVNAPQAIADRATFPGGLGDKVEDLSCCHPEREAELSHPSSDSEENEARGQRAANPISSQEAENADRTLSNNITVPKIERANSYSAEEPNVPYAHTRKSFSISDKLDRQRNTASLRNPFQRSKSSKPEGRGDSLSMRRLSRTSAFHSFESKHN

Each molecule was assayed against mouse TRPM3α2 (mTRPM3) ion channel (Mus musculus, UniProt J9SQF3) (assay: TRPM3 ion channel driven Ca2+ uptake, Fluo-4 AM assay, stimulated with pregnenolone sulfate (50 μM)). Settings: TRPM3 overexpressing flip-in HEK293 cells, PS 50 μM, 2.4 mM Ca2+.
Protocol: In order to monitor the inhibition of the mouse TRPM3α2 (mTRPM3) ion channel by the compounds of the invention, a cellular system making use of an mTRPM3alpha2 or hTRPM3 overexpressing cell line (flip-in HEK293) was used. The TRPM3 channel was stimulated/opened with Pregnenolone sulfate (PS) (50 μM) which results in Ca^2+ influx.
For mTRPM3, the intracellular Ca^2+ was measured with a Calcium responsive dye, Fluor-4 AM ester (Invitrogen). Cells were cultured until a confluence of 80-90%, washed with Versene (Invitrogen) and detached from the surface by a short incubation with 0.05% Trypsin (Invitrogen). The […] was stopped by the addition of complete cell culture medium (DMEM, glutamax, 10% FCS, NEAA, Pen-Strep). Cells were collected and resuspended in Krebs buffer without Calcium at RT.
Prior the cell seeding (±2000 cells/well into a black, 384 well plate (Greiner)) the diluted compound was added in the assay plate, together with the PS dissolved in Krebs buffer containing Calcium. […] Directly after cell addition the plates were read on an Envision fluorescence reader (Perkin Elmer) by an Excitation of 485 nm and emission at 535 nm.
Channel inhibition was calculated compared to a non-PS stimulated control versus a condition stimulated with PS (50 μM) with vehicle. The ability of the compounds of the invention to inhibit this activity was determined as: Percentage inhibition=[1−((RFU determined for sample with test compound present−RFU determined for sample with positive control inhibitor) divided by (RFU determined in the presence of vehicle−RFU determined for sample with positive control inhibitor))]*100.
The activities of the Example compounds cpd 001-091 tested are depicted in the table below. All tested compounds show an activity in the Fluo-4 AM assay. The activity ranges A, B and C refer to IC50 values in the Fluo-4 AM assay as follows: “A”: IC50<1 μM; “B”: 1 μM≤IC50≤20 μM and “C”: IC50>20 μM.

| Structure (SMILES) | IC50 [µM] |
| --- | --- |
| CC(=O)C(C)(CO)NC(=O)c1c(C)nn2ccc(OCc3ccccn3)cc12 (single isomer, unassigned) | 1 to 20 |
| COCC(C)(CC(F)F)NC(=O)c1c(C)nn2ccc(OCc3ccccn3)cc12 (single isomer, unassigned) | > 20 |
| Cc1cccc(COc2ccn3nc(C)c(C(=O)NC(C)(CO)C(N)=O)c3c2)c1F (single isomer, unassigned) | < 1 |
| Cc1cccc(F)c1COc1ccn2nc(C)c(C(=O)NC(C)(CO)C(N)=O)c2c1 (single isomer, unassigned) | < 1 |
| Cc1ncsc1COc1ccn2nc(C)c(C(=O)NC3CCNC3)c2c1 (single isomer, unassigned) | > 20 |
| Cc1nn2ccc(OCc3cccc(F)c3F)cc2c1C(=O)NC(C)(CO)C(N)=O (single isomer, unassigned) | 1 to 20 |
| Cc1nn2ccc(OCc3ccccn3)cc2c1C(=O)NC(C)(CO)c1ccn(C)n1 (single isomer, unassigned) | > 20 |
| Cc1nn2ccc(OCc3ccccn3)cc2c1C(=O)NC(CCO)c1ccc(F)cc1 (single isomer, unassigned) | > 20 |
| Cc1nn2ccc(OCc3ccccn3)cc2c1C(=O)NC(CO)C(F)(F)F (single isomer, unassigned) | 1 to 20 |
| Cc1nn2ccc(OCc3ccccn3)cc2c1C(=O)NC(CO)C1CCOCC1 (single isomer, unassigned) | > 20 |
| Cc1nn2ccc(OCc3ccccn3)cc2c1C(=O)NC(CO)Cc1ncccn1 (single isomer, unassigned) | > 20 |
| Cc1nn2ccc(OCc3ccccn3)cc2c1C(=O)NC(CO)c1ccc(F)cc1 (single isomer, unassigned) | > 20 |
| Cc1nn2ccc(OCc3ccccn3)cc2c1C(=O)NC(CO)c1nccn1C1CC1 (single isomer, unassigned) | 1 to 20 |
| CNC(=O)C(CO)NC(=O)c1c(C)nn2ccc(OCc3ccccc3F)cc12 (single isomer, unassigned) [Cpd 009 - En1] | 1 to 20 |
| CNC(=O)C(CO)NC(=O)c1c(C)nn2ccc(OCc3ccccc3F)cc12 (single isomer, unassigned) [Cpd 009 - En2] | > 20 |
| Cc1nn2ccc(OCC(F)F)cc2c1C(=O)NC(C)(CO)C(N)=O (single isomer, unassigned) [Cpd 015 - En1] | 1 to 20 |
| Cc1nn2ccc(OCC(F)F)cc2c1C(=O)NC(C)(CO)C(N)=O (single isomer, unassigned) [Cpd 015 - En2] | > 20 |
| Cc1nn2ccc(OCc3ccccc3)cc2c1C(=O)NC(C)(CO)C(N)=O (single isomer, unassigned) [Cpd 016 - En1] | < 1 |
| Cc1nn2ccc(OCc3ccccc3)cc2c1C(=O)NC(C)(CO)C(N)=O (single isomer, unassigned) [Cpd 016 - En2] | 1 to 20 |
| Cc1nn2ccc(OCc3ccccc3F)cc2c1C(=O)NC(C)(CO)C(=O)N(C)C (single isomer, unassigned) [Cpd 017 - En1] | 1 to 20 |
| Cc1nn2ccc(OCc3ccccc3F)cc2c1C(=O)NC(C)(CO)C(=O)N(C)C (single isomer, unassigned) [Cpd 017 - En2] | > 20 |
| Cc1ccc(COc2ccn3nc(C)c(C(=O)NC(C)(CO)C(N)=O)c3c2)cn1 (single isomer, unassigned) [Cpd 021 - En1] | 1 to 20 |
| Cc1ccc(COc2ccn3nc(C)c(C(=O)NC(C)(CO)C(N)=O)c3c2)cn1 (single isomer, unassigned) [Cpd 021 - En2] | > 20 |
| Cc1nn2ccc(OCC3CC3)cc2c1C(=O)NC(C)(CO)C(N)=O (single isomer, unassigned) [Cpd 022 - En1] | < 1 |

More lines, now with the values ahead:

| IC50 [µM] | Structure (SMILES) |
| --- | --- |
| > 20 | Cc1nn2ccc(OCC3CC3)cc2c1C(=O)NC(C)(CO)C(N)=O (single isomer, unassigned) [Cpd 022 - En2] |
| < 1 | Cc1nn2ccc(OCc3ccccc3C(F)F)cc2c1C(=O)NC(C)(CO)C(N)=O (single isomer, unassigned) [Cpd 023 - En1] |
| 1 to 20 | Cc1nn2ccc(OCc3ccccc3C(F)F)cc2c1C(=O)NC(C)(CO)C(N)=O (single isomer, unassigned) [Cpd 023 - En2] |
| 1 to 20 | Cc1nn2ccc(OCc3ccccc3F)cc2c1C(=O)NC(C)(CO)CC(F)F (single isomer, unassigned) [Cpd 025 - En1] |
| < 1 | Cc1nn2ccc(OCc3ccccc3F)cc2c1C(=O)NC(C)(CO)CC(F)F (single isomer, unassigned) [Cpd 025 - En2] |
| < 1 | Cc1nn2ccc(OCc3ccc(F)cc3F)cc2c1C(=O)NC(C)(CO)C(N)=O (single isomer, unassigned) [Cpd 026 - En1] |
| 1 to 20 | Cc1nn2ccc(OCc3ccc(F)cc3F)cc2c1C(=O)NC(C)(CO)C(N)=O (single isomer, unassigned) [Cpd 026 - En2] |
| < 1 | Cc1ccc(COc2ccn3nc(C)c(C(=O)NC(C)(CO)C(N)=O)c3c2)c(F)c1 (single isomer, unassigned) [Cpd 028 - En1] |
| 1 to 20 | Cc1ccc(COc2ccn3nc(C)c(C(=O)NC(C)(CO)C(N)=O)c3c2)c(F)c1 (single isomer, unassigned) [Cpd 028 - En2] |
| < 1 | Cc1nn2ccc(OCc3cc(F)ccc3F)cc2c1C(=O)NC(C)(CO)C(N)=O (single isomer, unassigned) [Cpd 030 - En1] |
| 1 to 20 | Cc1nn2ccc(OCc3cc(F)ccc3F)cc2c1C(=O)NC(C)(CO)C(N)=O (single isomer, unassigned) [Cpd 030 - En2] |
| < 1 | Cc1nn2ccc(OCc3c(F)cccc3F)cc2c1C(=O)NC(C)(CO)C(N)=O (single isomer, unassigned) [Cpd 032 - En1] |
| 1 to 20 | Cc1nn2ccc(OCc3c(F)cccc3F)cc2c1C(=O)NC(C)(CO)C(N)=O (single isomer, unassigned) [Cpd 032 - En2] |
| 1 to 20 | Cc1ncsc1COc1ccn2nc(C)c(C(=O)NC(C)(CO)CC(F)F)c2c1 (single isomer, unassigned) [Cpd 037 - En1] |
| < 1 | Cc1ncsc1COc1ccn2nc(C)c(C(=O)NC(C)(CO)CC(F)F)c2c1 (single isomer, unassigned) [Cpd 037 - En2] |
| 1 to 20 | Cc1ncsc1COc1ccn2nc(C)c(C(=O)NC3CNCCC3(F)F)c2c1 (single isomer, unassigned) [Cpd 049 - En1] |
| > 20 | Cc1ncsc1COc1ccn2nc(C)c(C(=O)NC3CNCCC3(F)F)c2c1 (single isomer, unassigned) [Cpd 049 - En2] |
| > 20 | Cc1ncsc1COc1ccn2nc(C)c(C(=O)NC3CNCC(F)(F)C3)c2c1 (single isomer, unassigned) [Cpd 051 - En1] |
| 1 to 20 | Cc1ncsc1COc1ccn2nc(C)c(C(=O)NC3CNCC(F)(F)C3)c2c1 (single isomer, unassigned) [Cpd 051 - En2] |
| > 20 | Cc1nn2ccc(OCc3ccccn3)cc2c1C(=O)NC1CCNC1 (single isomer, unassigned) [Cpd 054 - En1] |
| 1 to 20 | Cc1nn2ccc(OCc3ccccn3)cc2c1C(=O)NC1CCNC1 (single isomer, unassigned) [Cpd 054 - En2] |
| > 20 | Cc1nn2ccc(OCc3ccccn3)cc2c1C(=O)NC(CO)c1ccccn1 (single isomer, unassigned) [Cpd 059 - En1] |
| 1 to 20 | Cc1nn2ccc(OCc3ccccn3)cc2c1C(=O)NC(CO)c1ccccn1 (single isomer, unassigned) [Cpd 059 - En2] |
